The results in this text go back to patent US9364474B2, “Method for treatment of neurologic dysfunction” (MedDEV, Inc., priority 2004, dated 2016).

For this data set, the system named is patient diagnosed with chronic schizophrenia. The settings on record: human, in vivo.

Take `Cc1cc2c(s1)Nc1ccccc1N=C2N1CCN(C)CC1` [Zyprexa]: the “side effects of prior medication” value is “extremely lethargic and obese”.
